In patent US20120114665A1 (Regeneron, published 2012):

Biological target: T1, human RANKL (receptor activator of NF-κB ligand) (human, UniProt O14788 140-317, limits assumed)
T1 construct: also called hRANKL; hRANKL native trimer
T1 sequence: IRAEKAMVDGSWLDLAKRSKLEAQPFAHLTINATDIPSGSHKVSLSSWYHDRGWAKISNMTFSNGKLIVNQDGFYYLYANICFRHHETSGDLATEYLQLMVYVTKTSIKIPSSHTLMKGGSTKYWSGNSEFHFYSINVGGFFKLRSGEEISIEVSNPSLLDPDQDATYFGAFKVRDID
Experiment: SPR (BIACORE 2000), antibody captured on anti-hFc, hRANKL injected
Experimental: Equilibrium dissociation constants (KD values) for antigen binding to the selected antibodies generated by hybridoma cell lines described above were determined by surface kinetics in a real-time biosensor surface plasmon resonance assay (BIACORE™ 2000). Each selected antibody was captured on a goat anti-mouse IgG polyclonal antibody surface created through direct chemical coupling to a BIACORE™ chip to form a captured antibody surface.
Each selected antibody was captured on a goat anti-hFc polyclonal antibody (Jackson Immuno Research Lab) surface created through direct chemical coupling to a BIACORE™ chip to form a captured antibody surface (Table 2).

- Kd: 8.42 pM
B1: 1G8 (antibody, V domains shown)
VH: QVQLVQSGGGVVQPGRSLRLSCAASGFTFSGYGMHWVRQAPDKGLEWVAVLSYDGTNKYYADSVKGRFTISRDNSKNTLYLQMNSLRAEDTAVYYCAKCLSGTYWGYGMDVWGQGTTVTVSS
VL: not shown
notes: From direct isolation of splenocytes; captured on anti-hFc; also called H4H003N
